Test results from US4939142A, “Substituted styrene derivatives” (priority 1989, dated 1990).

System: pentetrazole spasm
Test: Inhibition of pentetrazol spasm on mice
Settings: Table V, LD50/ED50

`CN1C(=O)OC(C)(C)C1=O` [Trimethadion, reference compound] showed a Therapeutical index of 4.3.
